Reference: BindingDB's records for doi:10.1021/ml300405d (Therachem Research Medilab (India), 2013)

Molecular target: Tyrosine-protein kinase SYK (Homo sapiens) (UniProt P43405)
Experiment: Inhibition of human Gst-tagged Syk expressed in sf9 cells

Row | SMILES | IC50
1 | COc1ccc(Nc2nc(-c3cccc(CO)c3)nc3scnc23)cc1OC | 79 nM
2 | COc1ccc(Nc2nc(N3CCCC(C(=O)Nc4ccc(C(=O)O)nc4)C3)nc3scnc23)cc1OC (stereo not drawn) | 65 nM
3 | COc1ccc(Nc2nc(N3CCCC(C(=O)NCCc4ccncc4)C3)nc3scnc23)cc1OC (stereo not drawn) | 19900 nM
